Assay results as given in patent US20080220450A1, “Population Based Prediction Methods for Immune Response Determinations and Methods for Verifying Immunological Response Data” (Danisco US, Inc., Genencor Division, priority 2004, published 2008).
“Also recorded” adds a separate entry of the source.

System: CD4+ T-cells and dendritic cells
Experiment: I-MUNE assay: CD4+ T-cell proliferation to 15-mer peptide sets presented by dendritic cells
Assay type: cell-based, human
Design: Structure value: scale not given here
Conditions: for Response/Peptide: SI>2.95; for CD4+ T-cell epitopes identified: in words
Experimental: All peptides were obtained from a commercial source (Mimotopes, San Diego, C-A). For the I-MUNE® assay system described herein, 15-mer peptides offset by 3 amino acids that described the entire sequence of the proteins of interest were synthesized in a multipin format (See, Maeji et al., J. Immunol. Meth., 134:23-33 [1990]). Peptides were resuspended in DMSO at approximately 1 to 2 mg/ml, and stored at −70° C. prior to use. Each peptide was tested at least in duplicate, although for small peptide sets (e.g., Ber e 1), the peptides were routinely tested in triplicate. The results for each peptide were averaged and the stimulation index (SI) was calculated for each peptide.
Volunteer donor human blood buffy coat samples were obtained from two commercial sources (Stanford Blood Center, Palo Alto, Calif., and the Sacramento Medical Foundation, Sacramento, Calif.). Buffy coat samples were further purified by density separation. Each sample was HLA typed for HLA-DR and HLA-DQ using a commercial PCR-based kit (Bio-Synthesis). […] However, the donor pool did show evidence of slight enrichments for ethnicities common to the San Francisco Bay Area.
Monocytes were purified by adherence to plastic in AIM V medium (Gibco/Life Technologies). Adherent cells were cultured in AIM V media containing 500 units/ml of recombinant human IL-4 (Endogen) and 800 units/ml recombinant human GM-CSF (Endogen) for 5 days. On day 5, recombinant human IL-1α (Endogen) and recombinant human TNF-α (Endogen) were added to 50 units/ml and 0.2 units/ml, respectively. On day 7, the fully matured dendritic cells were treated with 50 μg/ml mitomycin C (Sigma) for 1 hour at 37° C. Treated dendritic cells were dislodged with 50 mM EDTA in PBS, washed in AIM V medium, counted, and resuspended in AIM V media at 2×10^5 cells/ml.
CD4^+ T-cells were purified by negative selection from frozen aliquots of human peripheral blood mononuclear cells (PBMC) using Cellect CD4 columns (Cedarlane). CD4^+ T-cell populations were routinely >80% pure and >95% viable as judged by trypan blue (Sigma) exclusion. CD4^+ T-cells were resuspended in AIM V media at 2×10^6 cells per ml.
CD4^+ T-cells and dendritic cells were plated in round-bottomed 96 well format plates at 100 μl of each cell mix per well. Peptide was added to a final concentration of approximately 5 ug/ml in 0.25-0.5% DMSO. Control wells contained 0.5% DMSO without added peptide. Each peptide was tested in duplicate. Cultures were incubated at 37° C., in 5% CO2 for 5 days. On day 5, 0.5 uCi of tritiated thymidine (NEN DuPont) was added to each well. On day 6, the cultures were harvested onto glass fiber mats using a TomTec manual harvester (TomTec), then processed for scintillation counting. Proliferation was assessed by determining the average counts per minute (CPM) value for each set of duplicate wells (TriLux Beta). This method is also described in U.S. Pat. No. 6,218,165 and Stickler et al., J. Immunother. 23: 654-660 (2000), both of which are herein incorporated by reference.
For each individual buffy coat sample, the average CPM values obtained in the I-MUNE® assay for all of the peptides were analyzed. The average CPM values for each peptide were divided by the average CPM value for the control (DMSO only) wells to determine the “stimulation index” (SI). Donors were tested with each peptide set until an average of at least two responses per peptide were compiled. The data for each protein was graphed showing the percent responders to each peptide within the set. A positive response was collated if the SI value was equal to or greater than 2.95. This value was chosen as it approximates a difference of three standard deviations in a normal population distribution. For each protein assessed, positive responses to individual peptides by individual donors were compiled. To determine the background response for a given protein, the percent responders for each peptide in the set were averaged and a standard deviation was calculated. […]

[1] = Table 3, Stanford and Sacramento donors

Substance	structure value, in words	Average Background (Table 2)	Number of epitope regions (Table 2)	Response per peptide (Table 2)	Structure value (Table 2)	Background % (Table 3) [%]	Response/Peptide (Table 3)	Structure value [1]	background response (average percent responders per peptide, +/− sd where given)	CD4+ T-cell epitopes identified (listed as human β2-microglobulin)	CD4+ T-cell epitopes identified (listed as human β-2 microglobulin)	CD4+ T-cell epitopes identified (listed as β-2 microglobulin)	Background +/− sd (Table 5, background response value)	Responses/peptide found (Table 5, determined experimentally)	Average percent response to epitope peptide (Table 6, repeat tests of the epitope peptide on discrete donor groups) [%]
B2-microglobulin: human β2-microglobulin, negative control [reference compound]	low	3.9	0	3.39	0.39	3.9	3.38	0.39	3.90+/−1.82%	None of the peptide responses were significant; also recorded: did not identify any epitopes	no epitopes were found	no prominent epitope responses were found	–	–	–
hIFN-B: human interferon-beta	comparatively high	3.17	1	2.79	0.75	3.17	2.79	0.75	–	–	–	–	3.17 +/− 3.28	2.79	16.41
